The list shows a part of the results, in another mix than the full data. Activity calls are given as the source filed them.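 Rule for the calls: active = inhibition above the batch mean plus 3 SD, and confirmed as a hit on visual image review (cut at about 43% in these data); inconclusive = passes the inhibition cutoff but fails visual image review; inactive = the rest.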

The nature of the assay: E-selectin induction blockers in HUVEC – imaging, immunofluorescence, high content, primary screen (AID 1246).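 Note: 0% = TNF-stimulated DMSO wells and 100% = unstimulated control wells.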 Conditions: HUVEC TNFa-induced E-selectin immunofluorescence, at 2 µM, hits give high values.
For the compound `CCOC(=O)c1ccc(NP(C)(=O)Oc2ccc(Cl)cc2)cc1` (stereo not given), the inhibition (commonly the change of the read-out against control, counted positive when it falls) is inactive: 10.1%.

As to `CP(=O)(OC12CC3CC(CC(C3)C1)C2)OC12CC3CC(CC(C3)C1)C2`, the inhibition is inactive: 15.4%.

With `CN(C)C(=O)c1c([N+](=O)[O-])cc([N+](=O)[O-])cc1[N+](=O)[O-]`, the inhibition was inactive: 20.1%.

On to `CC(C)(C)c1ccc(OP(C)(=O)O)cc1`, for which the inhibition is inactive: -14.5%.

In the case of `CP(=O)(Nc1ccc(Cl)cc1)Oc1ccc(F)cc1` (stereo not given), the inhibition is inactive: 3.79%.

Take `CP(=O)(Oc1ccccc1)N1CCOC1=O` (stereo not given): the inhibition is inactive: -25.9%.

For `COc1ccc(OP(C)(=O)Nc2ccc(Br)cc2)cc1` (stereo not given), the inhibition was inactive: -51.5%.

Take `CP(=O)(Nc1ccccn1)Oc1ccccc1` (stereo not given): the inhibition is inactive: 9.93%.

In the case of `CCc1ccc(OP(C)(=O)O)cc1`, the inhibition is inactive: 4.64%.

Consider `Cc1c(NP(C)(=O)Oc2ccc(C(C)C)cc2)c(=O)n(-c2ccccc2)n1C` (stereo not given), for which the inhibition was inactive: 14.7%.

Take `COc1ccc(OP(C)(=O)Nc2ccccn2)cc1` (stereo not given): the inhibition is inactive: 2.62%.

Regarding `CN(C)CCOC(=O)C(O)(c1ccccc1)C1CCCC1` (stereo not given), the inhibition was inactive: 10.6%.

Regarding `Cc1nc2ccc3ccccc3c2o1.O=[N+]([O-])c1cc([N+](=O)[O-])c(O)c([N+](=O)[O-])c1`, the inhibition was inactive: -12.7%.

For the compound `CP(=O)(Nc1ccccc1)Oc1ccc(F)cc1` (stereo not given), the inhibition is inactive: 3.28%.

Consider `CCN(CC)CCCOC(=O)C(O)(c1ccccc1)C1CCCCC1` (stereo not given), for which the inhibition was inactive: 7.35%.

For the compound `CCOC(=O)c1ccc(NP(C)(=O)Oc2ccc(F)cc2)cc1` (stereo not given), the inhibition was inactive: -4.03%.

Regarding `COc1ccc(OP(C)(=O)Nc2ccc(SC(F)(F)F)cc2)cc1` (stereo not given), the inhibition was inactive: -18.9%.

On to `O=C(OCCN1CCN(CCOCc2ccccc2)CC1)C(O)(c1ccccc1)c1ccccc1`, for which the inhibition was inactive: 22.2%.

For `Cc1ccccc1NP(C)(=O)Nc1ccccc1C`, the inhibition was inactive: -47.5%.

In the case of `CP(=O)(Nc1ccc2c(c1)OCCO2)Oc1ccccc1` (stereo not given), the inhibition was inactive: 6.33%.

For `CCOP(C)(=S)SCC(=O)NC(C)(CC)C(=O)O` (stereo not given), the inhibition was inactive: 19%.

In the case of `CN(C)CCOC(=O)C(O)(c1ccccc1)C1CCCCC1` (stereo not given), the inhibition is inactive: 8.87%.

Regarding `COc1ccc(OP(C)(=O)Nc2cccc(Br)c2)cc1` (stereo not given), the inhibition is inactive: -23.2%.

In the case of `CP(=O)(Nc1ccc(SC(F)(F)F)cc1)Oc1ccccc1` (stereo not given), the inhibition is inactive: -6.04%.

Consider `COc1ccccc1OP(C)(=O)Nc1c(C)cccc1C` (stereo not given), for which the inhibition was inactive: 7.48%.

As to `Cc1nc2ccc3ccccc3c2s1.O=[N+]([O-])c1cc([N+](=O)[O-])c(O)c([N+](=O)[O-])c1`, the inhibition is inactive: 39.8%.

Consider `Cc1ccc(C)c(NP(C)(=O)Oc2ccccc2)c1` (stereo not given), for which the inhibition is inactive: -19.4%.

For `Cc1cc(C)cc(OP(C)(=O)Nc2ccccn2)c1` (stereo not given), the inhibition is inactive: -3.09%.

`CCOC(=O)c1ccc(NP(C)(=O)Oc2cc(C)cc(C)c2)cc1` (stereo not given): the inhibition was inactive: -6.02%.

Turning to `Cc1cc(C)cc(OP(C)(=O)Nc2ccc(C)cc2C)c1` (stereo not given), the inhibition is inactive: 6.93%.

Consider `CC1=NCCc2c1[nH]c1ccccc21.O=[N+]([O-])c1cc([N+](=O)[O-])c(O)c([N+](=O)[O-])c1`, for which the inhibition is inactive: 27.7%.

`COc1ccc(OP(C)(=O)Nc2cccc(F)c2)cc1` (stereo not given): the inhibition was inactive: -7.84%.

On to `COc1ccccc1OP(C)(=O)Nc1ccc(C)cc1` (stereo not given), for which the inhibition is inactive: -43.8%.

As to `Cc1ccc(NP(C)(=O)Oc2ccccc2)c(C)c1` (stereo not given), the inhibition is inactive: 49.7%.

Regarding `CCOC(=O)c1ccc(NP(C)(=O)Oc2ccccc2)cc1` (stereo not given), the inhibition is inactive: -0.8%.

Take `CP(=O)(Nc1ccccn1)Oc1ccc(Cl)cc1` (stereo not given): the inhibition is inactive: 8.72%.

Take `CCOP(C)(=S)SCC(=O)NC(C)C(=O)O` (stereo not given): the inhibition is inactive: -0.02%.

Turning to `Cc1cccc(C)c1OP(C)(=O)Nc1ccc(SC(F)(F)F)cc1` (stereo not given), the inhibition is inactive: -5.55%.

In the case of `CP(=O)(Nc1ccccc1Br)Oc1ccccc1` (stereo not given), the inhibition is inactive: -9.52%.

As to `CP(=S)(Nn1cnnc1)Oc1ccccc1` (stereo not given), the inhibition was inactive: -9.25%.

For the origin of these results see PubChem BioAssay AID1246 (Columbia University Molecular Screening Center, 2008).
